## Cyclic peptide permeability, from CycPeptMPDB

PAMPA measures passive passage through an artificial lipid membrane.
P is given in units of 10^-6 cm/s (from log10 values with two decimals); larger means faster passage.

Listed for CCCN1CC(=O)N[C@H](CC(C)C)C(=O)N[C@H](CC(C)C)C(=O)N2CCC[C@H]2C(=O)N(C)[C@H](CC(C)C)C(=O)N[C@@H](Cc2ccccc2)C1=O: PAMPA 1.1 × 10^-6 cm/s.
Listed for CCCN1CC(=O)N(C)[C@H](CC(C)C)C(=O)N[C@@H](CC(C)C)C(=O)N2CCC[C@@H]2C(=O)N[C@H](CC(C)C)C(=O)N[C@@H](Cc2ccccc2)C1=O: PAMPA 5 × 10^-6 cm/s.
Listed for CC(C)C[C@H]1NC(=O)[C@@H](C)NC(=O)[C@H]2CCCN2C(=O)[C@H](Cc2ccccc2)NC(=O)[C@H](CC(C)C)N(C)C(=O)[C@@H]2CCCN2C(=O)CN(Cc2ccccc2)C1=O: PAMPA 0.89 × 10^-6 cm/s.
Listed for CC(C)C[C@@H]1C(=O)N[C@@H](Cc2ccccc2)C(=O)N2CCC[C@H]2C(=O)N[C@@H](C)C(=O)N[C@H](CC(C)C)C(=O)N(Cc2ccccc2)CC(=O)N2CCC[C@@H]2C(=O)N1C: PAMPA 0.48 × 10^-6 cm/s.
Listed for CCCN1CC(=O)N(C)[C@H](CC(C)C)C(=O)N(C)[C@@H](CC(C)C)C(=O)N2CCC[C@H]2C(=O)N(C)[C@@H](CC(C)C)C(=O)N[C@@H](Cc2ccccc2)C(=O)N2CCC[C@@H]2C1=O: PAMPA 11 × 10^-6 cm/s.
Listed for CC(C)C[C@@H]1NC(=O)C[C@H](Cc2ccccc2)NC(=O)[C@@H]2CCCN2C(=O)[C@H](Cc2ccccc2)NC(=O)[C@@H](CC(C)C)NC(=O)[C@H]2CCCN2C(=O)[C@@H](CC(C)C)N(C)C1=O: PAMPA 3.2 × 10^-6 cm/s.
Listed for CC(C)C[C@H]1NC(=O)C[C@H](Cc2ccccc2)NC(=O)[C@H](Cc2ccccc2)NC(=O)[C@H](CC(C)C)N(C)C(=O)[C@H]2CCCN2C(=O)[C@H](CC(C)C)N(C)C1=O: PAMPA 3.2 × 10^-6 cm/s.
Listed for CC(C)C[C@@H]1C(=O)N[C@@H](Cc2ccccc2)CC(=O)N2CCC[C@H]2C(=O)N(C)[C@H](CC(C)C)C(=O)N[C@@H](Cc2ccccc2)C(=O)N2CCC[C@H]2C(=O)N[C@H](C)C(=O)N1C: PAMPA 1.3 × 10^-6 cm/s.
Listed for CC(C)C[C@@H]1NC(=O)[C@H](C)NC(=O)[C@H](Cc2ccccc2)NC(=O)[C@H](CC(C)C)N(C)C(=O)[C@H]2CCCN2C(=O)[C@@H](CC(C)C)N(C)C1=O: PAMPA 7.8 × 10^-6 cm/s.
Listed for CC(C)C[C@@H]1NC(=O)[C@H](C)NC(=O)[C@H]2CCCN2C(=O)[C@H](Cc2ccccc2)NC(=O)[C@H](CC(C)C)NC(=O)[C@@H]2CCCN2C(=O)[C@@H](CC(C)C)NC1=O: PAMPA 0.55 × 10^-6 cm/s.
Listed for CC(C)C[C@@H]1NC(=O)[C@H](CC(C)C)N(C)C(=O)[C@H](C)N(C)C(=O)[C@H]2CCCN2C(=O)[C@H](Cc2ccccc2)NC(=O)[C@H](CC(C)C)N(C)C(=O)[C@@H]2CCCN2C1=O: PAMPA 11 × 10^-6 cm/s.
Listed for CC(C)C[C@@H]1NC(=O)[C@H](C)N(C)C(=O)[C@@H]2CCCN2C(=O)[C@H](Cc2ccccc2)NC(=O)[C@H](CC(C)C)N(C)C(=O)[C@H]2CCCN2C(=O)[C@H](CC(C)C)N(C)C1=O: PAMPA 6.2 × 10^-6 cm/s.
Listed for CC(C)C[C@H]1NC(=O)[C@H](C)NC(=O)[C@H](Cc2ccccc2)NC(=O)[C@H](CC(C)C)N(C)C(=O)[C@H]2CCCN2C(=O)[C@@H](CC(C)C)NC1=O: PAMPA 0.52 × 10^-6 cm/s.
Listed for CC(C)C[C@@H]1NC(=O)[C@@H]2CCCN2C(=O)C[C@H](Cc2ccccc2)NC(=O)[C@@H](CC(C)C)NC(=O)[C@H](C)NC(=O)[C@H](Cc2ccccc2)NC1=O: PAMPA 0.25 × 10^-6 cm/s.
Listed for CC(C)C[C@@H]1NC(=O)[C@H](C)N(C)C(=O)[C@@H]2CCCN2C(=O)[C@H](Cc2ccccc2)NC(=O)CN(Cc2ccccc2)C(=O)[C@@H]2CCCN2C(=O)C[C@H](Cc2ccccc2)NC1=O: PAMPA 0.79 × 10^-6 cm/s.
Listed for CC(C)C[C@@H]1NC(=O)[C@@H](CC(C)C)N(C)C(=O)[C@@H](C)N(C)C(=O)[C@H]2CCCN2C(=O)[C@H](Cc2ccccc2)NC(=O)[C@H](CC(C)C)N(C)C(=O)[C@@H]2CCCN2C1=O: PAMPA 6.8 × 10^-6 cm/s.
Listed for CCCN1CC(=O)N(C)[C@@H](CC(C)C)C(=O)N[C@H](CC(C)C)C(=O)N2CCC[C@H]2C(=O)N(C)[C@H](CC(C)C)C(=O)N[C@@H](Cc2ccccc2)C(=O)N2CCC[C@@H]2C1=O: PAMPA 6.5 × 10^-6 cm/s.
Listed for CC(C)C[C@@H]1NC(=O)[C@H](C)NC(=O)[C@H](Cc2ccccc2)NC(=O)[C@@H](CC(C)C)NC(=O)[C@@H]2CCCN2C(=O)CN(Cc2ccccc2)C1=O: PAMPA 0.47 × 10^-6 cm/s.
Listed for CCCN1CC(=O)N(C)[C@@H](CC(C)C)C(=O)N[C@@H](Cc2ccccc2)CC(=O)N2CCC[C@H]2C(=O)N(C)[C@H](CC(C)C)C(=O)N[C@@H](Cc2ccccc2)C(=O)N2CCC[C@@H]2C1=O: PAMPA 1.7 × 10^-6 cm/s.
Listed for CCCN1CC(=O)N[C@H](CC(C)C)C(=O)N(Cc2ccccc2)CC(=O)N2CCC[C@@H]2C(=O)N(Cc2ccccc2)CC(=O)N[C@@H](Cc2ccccc2)C(=O)N2CCC[C@@H]2C1=O: PAMPA 1.4 × 10^-6 cm/s.
Listed for CCCN1CC(=O)N[C@H](CC(C)C)C(=O)N[C@@H](Cc2ccccc2)CC(=O)N2CCC[C@@H]2C(=O)N[C@@H](CC(C)C)C(=O)N[C@@H](Cc2ccccc2)C(=O)N2CCC[C@@H]2C1=O: PAMPA 0.26 × 10^-6 cm/s.

Excerpt, the opening 2 entries:

CCCN1CC(=O)N[C@H](CC(C)C)C(=O)N[C@H](CC(C)C)C(=O)N2CCC[C@H]2C(=O)N(C)[C@H](CC(C)C)C(=O)N[C@@H](Cc2ccccc2)C1=O is reported with PAMPA 1.1 × 10^-6 cm/s.
CCCN1CC(=O)N(C)[C@H](CC(C)C)C(=O)N[C@@H](CC(C)C)C(=O)N2CCC[C@@H]2C(=O)N[C@H](CC(C)C)C(=O)N[C@@H](Cc2ccccc2)C1=O is reported with PAMPA 5 × 10^-6 cm/s.

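Lipid, pH, incubation time, direction and concentration are not recorded in the data file. Other peptides of the study may be missing here. Entries at the database's floor value (log10 P of -10) are not listed.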

Data: CycPeptMPDB; original report Townsend et al. 2020, doi:10.26434/chemrxiv.13335941.v1.